Laboratory results published in patent publication US10913733B2, “Substituted piperidines thiazolyl acetamides as glycosidase inhibitors and uses thereof” (priority 2015, dated 2021).

Protein sequences, listed by entry. Tags and fused reporters are not part of them.
UniProt O60502, whole entry: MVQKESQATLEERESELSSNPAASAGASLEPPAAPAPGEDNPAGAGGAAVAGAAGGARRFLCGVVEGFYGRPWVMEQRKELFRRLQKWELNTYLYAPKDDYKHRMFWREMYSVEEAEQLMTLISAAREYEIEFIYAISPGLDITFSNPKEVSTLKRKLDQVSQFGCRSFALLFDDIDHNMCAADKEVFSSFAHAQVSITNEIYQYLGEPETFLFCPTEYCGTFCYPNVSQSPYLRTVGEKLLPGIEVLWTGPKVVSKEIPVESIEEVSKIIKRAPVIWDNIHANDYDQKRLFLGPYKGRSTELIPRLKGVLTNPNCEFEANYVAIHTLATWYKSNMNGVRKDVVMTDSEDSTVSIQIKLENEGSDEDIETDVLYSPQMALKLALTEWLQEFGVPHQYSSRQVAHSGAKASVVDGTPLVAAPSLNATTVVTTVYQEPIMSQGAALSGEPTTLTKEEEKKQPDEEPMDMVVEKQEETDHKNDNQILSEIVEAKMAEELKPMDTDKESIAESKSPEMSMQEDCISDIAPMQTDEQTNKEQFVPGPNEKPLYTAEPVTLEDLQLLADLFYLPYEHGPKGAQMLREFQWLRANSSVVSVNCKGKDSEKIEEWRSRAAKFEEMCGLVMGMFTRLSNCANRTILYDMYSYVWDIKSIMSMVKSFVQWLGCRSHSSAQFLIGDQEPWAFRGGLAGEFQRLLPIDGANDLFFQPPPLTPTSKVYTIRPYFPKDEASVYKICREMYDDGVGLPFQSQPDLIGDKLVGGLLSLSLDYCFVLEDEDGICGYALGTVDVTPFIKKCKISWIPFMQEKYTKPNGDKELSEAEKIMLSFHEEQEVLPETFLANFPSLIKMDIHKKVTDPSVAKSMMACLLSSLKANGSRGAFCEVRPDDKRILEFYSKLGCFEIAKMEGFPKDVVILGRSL

Target: human O-GlcNAcase (Homo sapiens (Human), UniProt O60502)
Assay: Assay for determination of KI values for inhibition of O-GlcNAcase activity
Type: biochemical
Settings: read-out: hOGA Ki; purified human O-GlcNAcase 0.7 nM; substrate 2 mM 4-Methylumbelliferyl N-acetyl-β-D-glucosaminide; pH 7.0; room temperature; Cheng-Prusoff

CC(=O)Nc1ncc(CN2CCC(=Cc3ccc(O)cc3)CC2)s1
Ki: 0.861 nM
